Screening data from PubChem BioAssay.
TDP1 cell noCPT – qHTS for Inhibitors of human tyrosyl-DNA phosphodiesterase 1 (TDP1): qHTS in cells in absence of CPT | Potency, µM (doses to about 46.2 µM), hits mostly inhibitors | 420,000 compounds, 15% hits | AID 686978, 2013 | DT40 Tdp1-/- hTDP1 cells, no CPT, ATP luminescence, 48 h; note: nearly all actives have a fitted effect of over 55% in size
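Cells were dispensed at 400 per well, compounds added by pin tool, plates incubated ≥48 hr at 37 °C, then CellTiter-Glo added for 30 min at room temperature before luminescence reading. Line: DT40 Tdp1-/- complemented with hTDP1; camptothecin omitted.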
TDP1 cell CPT – DT40-hTDP1 cell growth loss with CPT; 420,000 compounds, 12% hits; chicken DT40 Tdp1-/-;hTDP1 cells + 20 nM CPT, ATP luminescence, 48 h; Potency, µM (series often up to 46.2 µM), hits mostly inhibitors; AID 686979; note: nearly all actives have a fitted effect of over 55% in size
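Chicken DT40 Tdp1-/- cells stably complemented with human TDP1 were seeded at 400 cells/well in medium containing 20 nM camptothecin, exposed to pin-transferred compounds, and grown at 37 °C for at least 48 hr. Viability was read as ATP luminescence.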
TDP1 inh – TDP1 (human) enzyme inhibition. recombinant TDP1, AlphaScreen DNA substrate cleavage. 350,000 compounds, 0.28% hits. AID 485290. Q9NUW8. Potency, µM (top dose mostly 130 µM), actives largely listed as inhibitors; note: nearly all actives have a fitted effect of over 40% in size
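Steps: enzyme plus compound, 15 min RT; add biotin/phosphotyrosine-FITC oligonucleotide (15 nM final), react 5 min; add donor/acceptor beads (10 ug/ml final), 10 min; read AlphaScreen. Tdp1 at 1 nM final.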
miR-21 reporter – miR-21 reporter, rising signal. 340,000 tested, under 10 active. Potency, µM (highest dose often 38.3 µM). HeLa miR-21 FLuc reporter, luciferase, 48 h. AID 2288; active = well fitted rising curve with a large enough effect; inconclusive = small, poorly fitted or top-dose-only effect; inactive = no such curve, though single readings can be large or run the other way;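 further: miR-21 action dims this reporter so a rising signal means less miR-21 action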
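HeLa cells endogenously expressing miR-21, stably carrying CMV-driven firefly luciferase with a downstream miR-21 binding site, 2000 cells/well. Titrations up to approximately 40 uM, 48 hours; luciferase luminescence read.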
uPA generation – inhibitors of cell surface uPA generation | 330,000 compounds, 0.31% hits | Potency, µM (series often up to 38.3 µM), usual class: inhibitors | cell surface uPA generation assay, qHTS; active = well fitted inhibition curve with a large enough effect; inconclusive = small, poorly fitted or top-dose-only effect; inactive = no such curve, though single readings can be large or run the other way; tested in mouse RAW 264.7 cells; note: nearly all actives have a fitted effect of over 55% in size
A number is an active result. Sampled rows, rich in hits. Any-hit rate of the full collection: about 16%. Unless noted, calls come from the whole dose curve; as a rule, active = well fitted curve in the direction sought with a large enough effect; inconclusive = small, poorly fitted or top-dose-only effect, or another doubt; inactive = no such curve, though single readings can be large; an effect the other way counts as inactive or inconclusive.

CCCCCn1c(CNC(=O)CC)nc2ccccc21 was read as TDP1 cell noCPT inconclusive, TDP1 cell CPT inconclusive, TDP1 inh inactive, miR-21 reporter inactive and uPA generation inactive.
Screening COc1ccc(C)cc1S(=O)(=O)NCC(c1cccs1)S(=O)(=O)c1ccc(C)cc1 (centres undefined) returned TDP1 cell noCPT inconclusive, TDP1 cell CPT 23µM, TDP1 inh inactive and miR-21 reporter inactive.
For COc1ccc(S(=O)(=O)NCC(c2cccs2)S(=O)(=O)c2ccc(C)cc2)cc1F (centres undefined) the results were TDP1 cell noCPT 16µM, TDP1 cell CPT inconclusive, TDP1 inh inactive and miR-21 reporter inactive.
For CCOC(=O)c1ccc(OCc2c(C)noc2C)cc1 the results were TDP1 cell noCPT inactive, TDP1 cell CPT inactive, TDP1 inh inactive, miR-21 reporter inactive and uPA generation inactive.
Screening COC(=O)N[C@@H](c1cccc(F)c1)[C@@H](C)[N+](=O)[O-] returned TDP1 inh inactive.
Screening CCOC(=O)C1=C(N)n2c(s/c(=C\c3ccco3)c2=O)=C(C(=O)OCC)C1c1ccco1 (centres undefined) returned TDP1 cell noCPT 5µM, TDP1 cell CPT 5.6µM, TDP1 inh inactive and miR-21 reporter inactive.
`CCOC(=O)C1=C(N)n2c(s/c(=C\c3ccco3)c2=O)=C(C(=O)OC(C)C)C1c1ccco1` (centres undefined) gave TDP1 cell noCPT 21µM, TDP1 cell CPT inconclusive, TDP1 inh inactive, miR-21 reporter inactive and uPA generation inactive.
`O=C1CC(c2ccccc2)CC(=O)C1Sc1ccc(Cl)cc1` (centres undefined) gave TDP1 cell noCPT inconclusive, TDP1 cell CPT inconclusive, TDP1 inh inactive, miR-21 reporter inactive and uPA generation inactive.
`COc1ccc(S(=O)(=O)N2CCC(C(=O)NCc3cccnc3)CC2)cc1C` gave TDP1 cell noCPT inactive, TDP1 cell CPT inactive, miR-21 reporter inactive and uPA generation inactive.
CCc1ccc(Nc2nc(-c3cc4cccc(OC)c4oc3=O)c(CC)s2)cc1 was read as TDP1 cell noCPT 23µM, TDP1 cell CPT inconclusive, TDP1 inh inactive and miR-21 reporter inactive.
For CCc1sc(Nc2ccc(Cl)cc2)nc1-c1cc2cccc(OC)c2oc1=O the results were TDP1 cell noCPT 21µM, TDP1 cell CPT inconclusive, TDP1 inh inactive and miR-21 reporter inactive.
Screening CCc1sc(Nc2ccc(C)cc2Br)nc1-c1cc2cccc(OC)c2oc1=O returned TDP1 cell noCPT inconclusive, TDP1 cell CPT inconclusive, TDP1 inh inactive and miR-21 reporter inactive.
Screening CCCC(=O)NCC(c1ccc2c(c1)OCO2)N1CCOCC1 (centres undefined) returned TDP1 cell noCPT inactive, TDP1 cell CPT inactive, TDP1 inh inactive and miR-21 reporter inactive.
CCOc1ccc(CCNC(=O)COC(=O)c2cccnc2SC)cc1OCC was read as TDP1 cell noCPT inactive, TDP1 cell CPT inactive, TDP1 inh inactive and uPA generation inactive.
Screening COc1ccc(/C=C/c2ccc3ccccc3[n+]2C)cc1OC returned TDP1 cell noCPT 18µM, TDP1 cell CPT 13µM, miR-21 reporter inactive and uPA generation inactive.
For COc1cc(/C=C/c2cc[n+](C)c3ccccc23)cc(OC)c1OC the results were TDP1 cell noCPT inactive and TDP1 cell CPT inactive.
For COc1ccc(/C=C/c2ccc3ccccc3[n+]2C)c(OC)c1OC the results were TDP1 cell noCPT 1.1µM and TDP1 cell CPT 1.4µM.
Screening CC(=O)Oc1ccccc1/C=C/c1ccc2ccccc2[n+]1C returned TDP1 cell noCPT 16µM, TDP1 cell CPT 21µM, TDP1 inh inactive, miR-21 reporter inactive and uPA generation inconclusive.
Screening COc1cc(OC)c(OC)cc1/C=C/c1ccc2ccccc2[n+]1C returned TDP1 cell noCPT 0.71µM and TDP1 cell CPT 0.89µM.
Screening Cc1c(C(=O)NCc2ccc(F)cc2)sc2nc(-c3ccc(F)cc3)cn12 returned TDP1 cell noCPT inconclusive, TDP1 cell CPT inactive, TDP1 inh inactive and miR-21 reporter inactive.
`CC(=O)Nc1ccc(C=NN=C2c3ccccc3-c3ccccc32)cc1` gave TDP1 cell noCPT inconclusive, TDP1 cell CPT 26µM and uPA generation inactive.
